From publication PMC6624406 (British Journal of Clinical Pharmacology, 2019)

Design: species or system human
Conditions: in vivo

buprenorphine
C24, adjusted geometric mean (90% CI): 780 (638–953) pg/mL and 1082 (949–1234) pg/mL | C24 GMR (90% CI): 1.39 (1.18–1.63) | Cmax, adjusted geometric mean (90% CI): 4187 (3835–4572) pg/mL and 5206 (4534–5977) pg/mL | Increase in Cmax, AUCτ and C24: 24–39%

Several values for one entry are separate records, joined by “and”; a condition that tells them apart may be missing. Equal entries are not always repeated.
